The test system of the test is autoantibody-mediated cutaneous lesions. Nature of the test: Immunization-induced mouse model of epidermolysis bullosa acquista (EBA). In kind it is in vivo, B6.SJL-H2s mice. The settings on record: 6 week treatment; LAS191954 orally 3 mg/kg/day, methylprednisolone orally 20 mg/kg/day; versus vehicle. Here is the method: Induction of experimental EBA was performed as described in […] et al., J Immunol. 2013; 191:2978-2988. Briefly, 6-10 week B6.SJL-[…] mice were immunized with an emulsion of a recombinant protein encompassing the vWFA2 binding domain of mouse type VII collagen (COL7) in adjuvant (Titermax). After immunization, mice were weekly evaluated for the presence and extend of clinical disease, measured as percentage of body surface affected by skin lesions (erythema, blisters, erosions and crusts). […] Treatments were carried out over a 6-week period, and mice were evaluated for the extend of clinical disease (primary endpoint) weekly. […] For better comparability between experiments, the affected body surface area at weeks 1-6 was related to that at inclusion (set at 1). Body weight was monitored weekly during treatment.

As for `C[C@H](Nc1ncnc(N)c1C#N)c1nn2ccc(C#N)c2c(=O)n1-c1ccccc1` [LAS191954, (S)-2-(1-(6-amino-5-cyanopyrimidin-4-ylamino)ethyl)-4-oxo-3-phenyl-3,4-dihydropyrrolo[1,2-f][1,2,4]triazine-5-carbonitrile], the “clinical severity (body surface area affected by skin lesions relative to score at inclusion)” value was “progressively and significantly (p<0.001 for weeks 4, 5 and 6) reduced the clinical severity”.

The values are drawn from patent publication US20170189409A1, “MEDICAL USE” (Almirall, S.A., priority 2014, published 2017).
